Protein sequences, listed by entry. Tags and fused reporters are not part of them. Lines headed by an entry give the natural chain unless they say otherwise; changes in a name come on top.
UniProt P35351: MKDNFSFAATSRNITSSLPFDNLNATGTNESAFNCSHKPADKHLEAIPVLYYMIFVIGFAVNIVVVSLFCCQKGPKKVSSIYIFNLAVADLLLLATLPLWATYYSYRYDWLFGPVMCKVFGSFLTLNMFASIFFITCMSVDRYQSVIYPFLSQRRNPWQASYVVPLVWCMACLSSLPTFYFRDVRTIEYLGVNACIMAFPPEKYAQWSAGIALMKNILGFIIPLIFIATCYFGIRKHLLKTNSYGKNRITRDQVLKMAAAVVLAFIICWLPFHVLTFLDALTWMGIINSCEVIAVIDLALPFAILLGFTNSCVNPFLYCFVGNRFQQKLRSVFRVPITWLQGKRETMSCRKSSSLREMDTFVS

In paper PMC7950324, “A general method for quantifying ligand binding to unmodified receptors using Gaussia luciferase” (The Journal of Biological Chemistry, 2021):

Tests used:
[1] = target: N-terminally GLuc-tagged AT1 angiotensin receptor (GLuc‒AT1R), rat (rat) (UniProt P25095); experiment: FRET or BRET; kinetic receptor‒ligand BRET in real time on live HEK 293T cells with GLuc‒AT1R and DN-Dyn; 1 μM TAMRA‒AngII; dissociation after 15 min and washout with 10 μM candesartan against rebinding; one phase (one site) fits
[2] = target: AT2 angiotensin receptor (AT2R), untagged, rat (rat) (UniProt P35351); experiment: FRET or BRET; PM‒ligand (bystander) BRET with GLuc‒PM, equilibrium competition: live HEK 293T cells with unmodified receptor, GLuc‒PM and DN-Dyn; a fixed fluorescent ligand (1 μM TAMRA‒AngII, 300 ng/ml biotinylated EGF on Alexa Fluor 488 streptavidin, or 100 μg/ml Alexa Fluor 488 human transferrin) and increasing unlabeled ligand, 2 h at room temperature
[3] = target: N-terminally GLuc-tagged AT1 angiotensin receptor (GLuc‒AT1R), rat (rat) (UniProt P25095); experiment: FRET or BRET; receptor‒ligand BRET at equilibrium: live adherent HEK 293T cells with N-terminally GLuc- or NanoLuc-tagged AT1R (donor) and DN-Dyn; TAMRA‒AngII in solution (acceptor), 2 h at room temperature, modified Krebs–Ringer medium pH 7.4, read at 27 °C; nonspecific signal with 30 μM candesartan; two site binding curves
[4] = target: AT1 angiotensin receptor (AT1R), untagged, rat (rat) (UniProt P25095); experiment: FRET or BRET; PM‒ligand (bystander) BRET at equilibrium with GLuc‒PM: live HEK 293T cells with untagged receptor, GLuc‒PM and DN-Dyn; TAMRA‒AngII in solution (1 μM or increasing concentrations), 2 h at room temperature, modified Krebs–Ringer medium pH 7.4; nonspecific signal with 30 μM candesartan; two site binding curves
[5] = target: AT1 angiotensin receptor (AT1R), untagged, rat (rat) (UniProt P25095); experiment: FRET or BRET; PM‒ligand (bystander) BRET at equilibrium with NanoLuc‒PM: live HEK 293T cells with untagged AT1R, NanoLuc‒PM and DN-Dyn; 1 μM TAMRA‒AngII, 2 h at room temperature; specific signal is the part prevented by candesartan
[6] = target: AT1 angiotensin receptor (AT1R), untagged, rat (rat) (UniProt P25095); experiment: FRET or BRET; kinetic PM‒ligand (bystander) BRET in real time on live HEK 293T cells with untagged AT1R, GLuc‒PM and DN-Dyn; 1 μM TAMRA‒AngII; dissociation after 15 min and washout with 10 μM candesartan against rebinding; one phase (one site) fits
[7] = target: epidermal growth factor receptor (EGFR) (UniProt P00533); experiment: FRET or BRET; PM‒ligand (bystander) BRET with GLuc‒PM, equilibrium competition: live HEK 293T cells with unmodified receptor, GLuc‒PM and DN-Dyn; a fixed fluorescent ligand (1 μM TAMRA‒AngII, 300 ng/ml biotinylated EGF on Alexa Fluor 488 streptavidin, or 100 μg/ml Alexa Fluor 488 human transferrin) and increasing unlabeled ligand, 2 h at room temperature
[8] = target: AT1 angiotensin receptor (AT1R), untagged, rat (rat) (UniProt P25095); experiment: as above

Substance: red fluorophore–conjugated angiotensin II (TAMRA‒AngII) (peptide)
- koff [1]: 0.0405 s⁻¹
- kon [1]: 11500 M⁻¹ s⁻¹
- ΔBRET ratio induced by the fluorescent ligand without unlabeled ligand (the 100% value) [2]: 0.0119
- KD of the high-affinity site (K D Hi) [3]: 1020 nM
- KD of the low-affinity site (K D Lo) [3]: 26400 nM
- KD of the high-affinity site (K D Hi) [4]: 287 nM
- KD of the low-affinity site (K D Lo) [4]: 18500 nM
- ΔBRET ratio induced by 1 μM TAMRA–AngII without candesartan (the 100% value) [4]: 0.0168
- ΔBRET ratio induced by 1 μM TAMRA–AngII without candesartan (the 100% value) [5]: 0.0062
- koff [6]: 0.0173 s⁻¹
- kon [6]: 5270 M⁻¹ s⁻¹

Substance: biotinylated EGF conjugated to Alexa Fluor 488 streptavidin (ligand)
- ΔBRET ratio induced by the fluorescent ligand without unlabeled ligand (the 100% value) [7]: 0.0186

Substance: angiotensin II (AngII) (peptide)
- IC50 of the high-affinity site (IC50 Hi) [8]: 105 nM
